This is an account of results in patent US4649911A, “Small particle aerosol generator for treatment of respiratory disease including the lungs” (Baylor College of Medicine, priority 1986, dated 1987).

Like-named read-outs stand apart in the source and are kept apart here.

For this data set the following is noted: for Aerosol Concentration: Table 1, reservoir drug concentration 15 mg/ml.

In the case of `NC(=O)c1ncn([C@@H]2O[C@H](CO)[C@@H](O)[C@H]2O)n1` [ribavirin], the “increase of ribavirin concentration in the nebulizer flask” value (FIG. 7 apparatus, 5 hours of operation) was “about 15%”. The “increase in aerosol output concentration” value (FIG. 7 apparatus, over 5 hours) was 5.5%. Further, the “Aerosol Concentration” value worked out at 120 µg/L (nebulizer of FIG. 3), 165 µg/L (nebulizer of FIG. 7) and 64 µg/L (nebulizer of FIGS. 1 & 2). Besides, the “higher aerosol output, FIG. 7 as compared to FIG. 3” value (from spray factors) is given as 37.5%.
